# scFv variants of Ab-14 (light chain) against a SARS-CoV-2 spike peptide

Data: MIT Lincoln Laboratory AlphaSeq set, Li et al. 2023, doi:10.1038/s41467-023-39022-2, as distributed in FLAb.

Target peptide (SARS-CoV-2 spike, HR2 region): PDVDLGDISGINAS

Ab-14 is the parent antibody, in scFv form: VH, then a 15-residue (Gly4Ser)3 linker, then VL. The heavy chain is unchanged in all variants.
VH: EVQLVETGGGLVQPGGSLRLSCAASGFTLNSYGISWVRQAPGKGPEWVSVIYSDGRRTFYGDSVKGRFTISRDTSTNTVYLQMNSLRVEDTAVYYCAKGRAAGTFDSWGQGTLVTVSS
VL: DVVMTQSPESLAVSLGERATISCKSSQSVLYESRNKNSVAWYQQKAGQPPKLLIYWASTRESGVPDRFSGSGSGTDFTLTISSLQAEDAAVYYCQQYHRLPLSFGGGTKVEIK

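The starting antibody came from a phage panning campaign against this peptide. Designed CDR sequences, proposed from the first random library and measured here. Group labels follow the data file (Ctrl: baseline library sampled from a position-specific scoring matrix, with some repeated check sequences; Rand: our label for a block that the file lists under HC and that is probably the random mutants of the ten best first-round binders; En: ensemble of fine-tuned language models; GP: Gaussian process model; GPLM: also part of the Gaussian process libraries; HC: hill climbing; Gen: genetic algorithm; Gibbs: Gibbs sampling; a sequence that several methods proposed may carry one label only). The scFvs were displayed on barcoded MATa yeast, the peptide on MATalpha yeast. Pairs that bind mate more often; barcode pairs of the diploids are counted by sequencing. Read counts were normalised to the haploid input and turned into Kd by a linear fit to BCL2-family pairs of known affinity, for each replicate. Each pool was mated in six replicate cultures.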

Variants are written as CDR1, CDR2 and CDR3 of the light chain (limits as in the source). Parent: KSSQSVLYESRNKNSVA, WASTRES, QQYHRLPLS.
Values are apparent Kd, the geometric mean of the replicates that gave a signal; lower means stronger binding.
"no signal" means that the variant was in the library but no mating with the target was seen in any replicate; the authors take this as a sign of poor binding, and no number exists.
Of ten entries with the parent sequence, four were seen in most replicates (averages 2.2 nM to 240 nM), three in one and three in none, so single entries are noisy.
The authors' rule: three or more of the six replicates give a measured affinity, fewer mean a poor binder.
The range of this assay differs from that of the first round, and the authors advise against merging the two.
Empty control strains, which show no peptide, gave a signal in 4% of pairings with all light chain designs; the median was 430 nM and 95% of these signals were weaker than 38 nM. No background was subtracted. Also given: how often the same scFv was detected with the empty control strains.

CDR-L1	CDR-L2	CDR-L3	group	apparent Kd	detected	empty controls
HLGMLTMLEEYVRNSVA	NNSTREQ	QQYDRLPLS	En_Gen	1.6 µM	4 of 6	3 of 18
GMSDSMTETIADANHIA	DAEARDV	QQYSRLPLI	En_Gibbs	8.2 nM	6 of 6	1 of 18
KLSQSVLYESRCKNSVA	NASTRES	QQYHRLPLS	GP_Gen	2.4 nM	6 of 6	3 of 18
TITGVMTQMSHSKNNVA	EVSTRLD	QQYFRLPLE	En_Gen	3.5 nM	6 of 6	0 of 18
KVSEFMKGLMMRTDSIA	DNVTRNS	QQYDRLPLS	En_Gen	43 nM	6 of 6	1 of 18
KSLQSVPYESRNKNSVA	HASTREQ	QQYHFLPLS	GP_HC	5.5 nM	6 of 6	3 of 18
SISENYAGNTDNGKSIA	AEILQME	QQYHRLPLA	En_Gibbs	130 nM	5 of 6	1 of 18
AISEHAFYGQRDENAIA	GADVRAK	QQYWRLPLT	En_Gibbs	3.1 nM	6 of 6	3 of 18
HMLYQFNTGSQRVNNVA	EGATVLD	QQYFRLPIT	En_Gibbs	34 nM	6 of 6	2 of 18
KSSQSFLYESRTKNSVA	GASTRES	YQYHRLTLS	Rand	no signal	0 of 6	0 of 18
KLSMVTGHMSVSKNNVA	EMETRAN	QQYDRLPLA	En_Gen	5.0 nM	6 of 6	0 of 18
KSSQSVLYEFRNKNSVA	WASTRTS	QQYHRLPLS	Ctrl	8.0 nM	1 of 6	0 of 18
KLSNWYFDSYGNKQSVA	ENEATSN	QQYSLLPLS	En_Gibbs	67 nM	6 of 6	1 of 18
QLDLRMNEQGMQPAAIA	GATNRFT	QQYQKLPLS	En_Gibbs	1.2 nM	6 of 6	0 of 18
TIGGTLMWGVMNRSNVA	EVSQRLN	QQYDRLPLI	En_Gen	21 nM	6 of 6	1 of 18
DSSQSVLYESRNKNSVA	GASTRES	CQYHRLPLS	Ctrl	260 nM	4 of 6	0 of 18
KITATMRFEQKNKNNIA	EVSTRSK	QQYVRLPLA	En_Gen	860 pM	6 of 6	0 of 18
KFDQEVWYESRNKNSVA	MASQRCS	QQYHRLPLS	GP_Gibbs	4.6 nM	6 of 6	0 of 18
KILQEVTGRSQNRNSVA	HNSTRED	QQYDRLPLI	En_HC	870 nM	3 of 6	0 of 18
KVSQSELYESRNKNSVA	NASTREQ	QQYHRLPLS	GP_Gen	1.3 nM	6 of 6	0 of 18
KVSPSVQYEARNFNSVA	EASTREQ	QQYHRLPLS	GP_Gibbs	3.2 nM	6 of 6	0 of 18
HMSMLTLQGMRQRNSVA	QMTTREN	QQYDHLPLS	En_Gen	24 nM	6 of 6	0 of 18
KSSQSVLYEHRNKNSVA	GASTRES	QQYHRLPLS	Ctrl	8.7 nM	6 of 6	1 of 18
KVEQSNDYESRNKNSVA	NASQRLS	QQYHRLPLS	GP_Gibbs	4.1 nM	6 of 6	1 of 18
KFSQSVLYESRTKNSVA	EASTRES	QQYHRLPLS	GP_HC	800 pM	6 of 6	3 of 18
KSSWSVLNESHNKNSVA	SAKTREN	QQYHRLPLS	Ctrl	5.4 nM	6 of 6	3 of 18
HITMGMYVAGRHSHSIA	QAETREK	QQYDRLPLA	En_Gen	11 nM	6 of 6	1 of 18
KSLQSGLYESRNKNSVA	HASTRED	QQYHRLPLS	GP_HC	1.3 nM	6 of 6	3 of 18
RVSSMLMAGGIIYNNIA	NTKVLEY	QQYMRLPLM	En_Gibbs	3.1 nM	6 of 6	0 of 18
KFSQSVLYESRNKNSVA	HASTRES	QQYHRLPLS	GP_Gen	1.2 nM	6 of 6	0 of 18
KLEQSINYESRNKNSVA	NASTRES	QQYHRLPLS	GP_HC	240 pM	6 of 6	0 of 18
KVSQSVLYESRNKNSVA	WASTWES	QQYHRLPLS	Ctrl	no signal	0 of 6	0 of 18
QFARAMYHGGNDNQNIA	DAMTYIK	QQYSRLPLI	En_Gibbs	45 nM	4 of 6	2 of 18
MLSQMTGLGMKAKNSVA	QASMRFN	QQYHRLPLI	En_Gen	23 nM	1 of 6	0 of 18
KMSQSQPYESRMSNSVA	NASLRMS	QQYHRLPLS	GP_Gibbs	1.4 nM	6 of 6	1 of 18
SLQDMERIMNSHEQAIA	DGTESAR	QQYFQLPLH	En_Gibbs	3.8 nM	6 of 6	0 of 18
SLFFHDDQKQEESNNIA	HASLRSV	QQYMHLPLV	En_Gibbs	4.9 nM	6 of 6	0 of 18
KSGPGVLYESRNKNSVA	GASTRES	QQYHRLPLS	GPLM_HC	1.5 nM	6 of 6	0 of 18
HVSMLTLGGLRNRNSVA	QMTTREN	QQYDRLPLI	En_Gen	4.2 nM	6 of 6	0 of 18
KLPLATMQNSVSKNNVA	ELSTRGS	QQYHRLPLS	En_HC	2.5 nM	6 of 6	0 of 18
KVSQSNLYESGTKNSVA	NASSRES	QQYHRLPLS	GP_HC	1.6 nM	6 of 6	2 of 18
KSLFSVLYESRNKNSVA	HASTRED	QQYHRMPLS	Rand	20 nM	2 of 6	0 of 18
KLMQSVLYESRMKNSVA	NASTRES	QQYHRLPLS	GP_Gen	1.1 nM	6 of 6	0 of 18
KVSEFMRGMMRQKDSIA	DNETRQS	QQYDRLPLS	En_Gen	36 nM	5 of 6	0 of 18
MGLESYQQGVHEMNNIA	NGDQKLD	QQYYRLPLL	En_Gibbs	2.8 nM	6 of 6	0 of 18
HMNHEFLGYSNYEQAIA	HGSQRLY	QQYSHLPLS	En_Gibbs	2.4 nM	6 of 6	1 of 18
GILSQMDGPTEYKENVA	NGNERLP	QQYQRLPLT	En_Gibbs	30 nM	6 of 6	0 of 18
KFSQKVLYEHRMKNSVA	NASTRES	QQYHRLPLS	GP_HC	1.7 nM	6 of 6	2 of 18
MISQLMNMGQFAINSVA	QAEIRNA	QQYDRLPLA	En_Gen	92 nM	3 of 6	0 of 18
KSSGSVMGEDMNKNSVA	DASKRES	QQYHRLPLS	GP_Gibbs	1.4 nM	6 of 6	1 of 18
KISMLHNQTFNQSNNVA	EMVTREK	QQYNRLPLS	En_Gen	77 nM	6 of 6	2 of 18
MVSMMPNEGTRYWEAVA	DHSQRNN	QQYDQLPLS	En_Gibbs	no signal	0 of 6	0 of 18
KVQQSELYESRNKNSVA	DASTRES	QQYHRLPLS	GP_Gen	460 pM	6 of 6	1 of 18
MISQLFNMGMFAINSVA	QASERCN	QQYDRLPLM	En_Gen	39 nM	2 of 6	0 of 18
SISGFMKTLSAHRNSVA	DMTNRED	QQYDHLPLS	En_Gen	2.4 nM	6 of 6	3 of 18
KLVQSQLYESRNKNSVA	NASTRES	QQYHRLPLS	GP_Gen	780 pM	6 of 6	1 of 18

Picked from the list: the 9 lowest averages where every replicate gave a value.

| CDR-L1 | CDR-L2 | CDR-L3 | group | apparent Kd | detected | empty controls |
|---|---|---|---|---|---|---|
| KLEQSINYESRNKNSVA | NASTRES | QQYHRLPLS | GP_HC | 240 pM | 6 of 6 | 0 of 18 |
| KVQQSELYESRNKNSVA | DASTRES | QQYHRLPLS | GP_Gen | 460 pM | 6 of 6 | 1 of 18 |
| KLVQSQLYESRNKNSVA | NASTRES | QQYHRLPLS | GP_Gen | 780 pM | 6 of 6 | 1 of 18 |
| KFSQSVLYESRTKNSVA | EASTRES | QQYHRLPLS | GP_HC | 800 pM | 6 of 6 | 3 of 18 |
| KITATMRFEQKNKNNIA | EVSTRSK | QQYVRLPLA | En_Gen | 860 pM | 6 of 6 | 0 of 18 |
| KLMQSVLYESRMKNSVA | NASTRES | QQYHRLPLS | GP_Gen | 1.1 nM | 6 of 6 | 0 of 18 |
| KFSQSVLYESRNKNSVA | HASTRES | QQYHRLPLS | GP_Gen | 1.2 nM | 6 of 6 | 0 of 18 |
| QLDLRMNEQGMQPAAIA | GATNRFT | QQYQKLPLS | En_Gibbs | 1.2 nM | 6 of 6 | 0 of 18 |
| KSLQSGLYESRNKNSVA | HASTRED | QQYHRLPLS | GP_HC | 1.3 nM | 6 of 6 | 3 of 18 |